# Test results from paper PMC5476196, “Uptake, biotransformation and elimination of selected pharmaceuticals in a freshwater invertebrate measured using liquid chromatography tandem mass spectrometry” (Chemosphere, 2017).
# System: Gammarus pulex
# Assay: Biotransformation products in G. pulex after exposure to propranolol, carbamazepine or diazepam (LC-MS/MS)
# Conditions: diazepam exposure
smiles,measurement,value
O=C1Nc2ccc(Cl)cc2C(c2ccccc2)=NC1O (stereo not shown) [oxazepam],first detection of biotransformation product,not detectable until 48 h
